scFv variants of Ab-14 (light chain) against a SARS-CoV-2 spike peptide

The target is the same throughout: PDVDLGDISGINAS, from the HR2 region of SARS-CoV-2 spike.

Parent scFv Ab-14: VH joined to VL by a (GGGGS)3 linker. Changes lie in the light chain CDRs alone.
VH: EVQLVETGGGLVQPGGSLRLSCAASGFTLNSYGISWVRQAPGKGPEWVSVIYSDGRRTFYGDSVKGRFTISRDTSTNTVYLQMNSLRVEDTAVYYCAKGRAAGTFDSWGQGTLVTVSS
VL: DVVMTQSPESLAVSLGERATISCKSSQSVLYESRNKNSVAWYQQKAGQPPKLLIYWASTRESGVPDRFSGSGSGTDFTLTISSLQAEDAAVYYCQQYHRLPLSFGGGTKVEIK

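This is the validation round: designs drawn from the data on random variants, tested in the same kind of assay. Their group label is 14L_En_Gen (En: ensemble of fine-tuned language models; Gen: genetic algorithm). Affinity was read by AlphaSeq, a pooled yeast mating assay with surface-displayed partners. Mating (16 h, 30 °C) was followed by selection of diploids and sequencing of their barcodes. Read counts were normalised to the haploid input and turned into Kd by a linear fit to BCL2-family pairs of known affinity, for each replicate. Mating was done six times.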

The parent's light chain CDRs are KSSQSVLYESRNKNSVA, WASTRES, QQYHRLPLS; each variant's own CDRs replace them letter for letter. Values are log10 of the apparent Kd in nM; lower means stronger binding. An entry "ND" has no value in the source: the pair was not observed among the diploids in that replicate. This suggests poor binding but is not conclusive. In the paper, a design with two or fewer of six values counts as a poor binder. Background: pairings of all light chain designs with three empty control strains gave a value in 4% of cases (median 2.64, 5th percentile 1.59). Values in that range, when seen in few replicates, are hard to tell from nonspecific mating. For each scFv, signals with the empty controls are counted beside the result, with their mean in brackets. A sequence measured in both rounds can read differently, since the two assays cover different ranges. Of ten entries with the parent sequence, four were seen in most replicates (averages 0.34 to 2.37), three in one and three in none, so single entries are noisy.

| # | CDR-L1 | CDR-L2 | CDR-L3 | log10 Kd, replicates | empty controls |
|---|---|---|---|---|---|
| 1 | KIGHTLNTLYEKANNVA | DLVERED | QQYHRLPLS | 0.21 0.51 0.65 1.26 1.05 1.03 | 1 of 18 (1.66) |
| 2 | KISQMVKVGSTHSNSIA | EEQTRAK | QQYHRLPLS | 2.14 1.02 0.49 0.74 0.57 0.64 | 1 of 18 (2.03) |
| 3 | TISQLMNMGQFAINSVA | QAEIRNA | QQYDRLPLA | 1.37 1.52 0.94 1.09 1.59 1.50 | 1 of 18 (2.96) |
| 4 | HMSMITMLGSRNRNSVA | QMTTREN | QQYDRLPLA | 0.43 0.57 0.29 0.57 0.46 0.50 | 0 of 18 |
| 5 | MVYQATLMGTSTRNSIA | NAQMRPD | QQYHRLPLI | 1.10 1.18 1.56 1.81 2.54 1.23 | 2 of 18 (2.12) |
| 6 | MMSQVSGQGTRHRNNVA | QTSTREP | QQYDRLPLV | 0.73 0.60 0.82 0.27 1.00 0.70 | 2 of 18 (2.74) |
| 7 | KFSGSVNSMSVSKSAVA | EMSTRPE | QQYNRLPLA | 0.73 1.21 ND 0.85 ND ND | 0 of 18 |
| 8 | HMSMLTLGGMRSRNSVA | QMTTREN | QQYDRLPLS | 0.99 0.59 0.83 0.95 0.50 1.26 | 0 of 18 |
| 9 | TISQLHNMGTFAINSVA | QAEIRNE | QQYDRLPLT | 1.66 1.43 0.94 0.97 2.35 1.42 | 0 of 18 |
| 10 | IIDQLMFWGLKKANSIA | QASLRVN | QQYHHLPLT | 2.09 ND 2.51 ND 3.24 ND | 0 of 18 |
| 11 | TVTQMAMTGMMSKRSVA | NAETREY | QQYHRLPLI | ND ND 1.17 1.52 1.37 ND | 0 of 18 |
| 12 | IVSQLMLWGMHVKNSIA | EAQTRVN | QQYDRLPLI | ND ND 1.84 ND ND 1.91 | 0 of 18 |
| 13 | KVSEFLRGLMGRKDSIA | DNETRNN | QQYDRLPLS | 2.17 2.70 1.95 1.87 2.27 1.92 | 0 of 18 |
| 14 | MIYGAQRELGLAANSIA | DNVTRYE | QQYERLPLS | 1.84 3.17 1.68 1.44 1.68 2.07 | 1 of 18 (2.57) |
| 15 | HLGWATMLEETVRNSVA | NNSTRES | QQYDRLPLS | 1.53 1.57 1.02 1.09 1.49 1.26 | 1 of 18 (2.61) |
| 16 | MISQLYNMGSFAINSVA | QASTRNQ | QQYDRLPLM | ND 2.02 ND 0.78 2.93 1.63 | 2 of 18 (2.49) |
| 17 | HMSMITLQGMRHRNSVA | QMTTREN | QQYDHLPLS | 1.91 1.54 1.48 3.14 1.75 1.79 | 0 of 18 |
| 18 | KISMYSNMTFEASNNVA | EMVTREK | QQYNRLPLS | 1.24 2.14 1.46 1.57 1.86 1.62 | 1 of 18 (2.86) |
| 19 | MISQLYNMGQFAINSVA | QASLRYN | QQYDRLPLI | 0.62 0.35 0.18 -0.12 0.49 0.23 | 0 of 18 |
| 20 | MISQLMQMGQFAINSVA | QASIRNE | QQYDRLPLM | ND 1.22 2.10 ND ND 1.67 | 0 of 18 |
| 21 | TVTQMAMTGMKNKRSVA | NAEMREN | QQYHRLPLI | 1.16 1.61 0.97 0.90 1.53 0.91 | 0 of 18 |
| 22 | HLSMLSHVEMGTKNNVA | QMETRES | QQYDRLPLS | 0.24 0.34 0.46 0.00 0.12 -0.05 | 0 of 18 |
| 23 | QLSMITGHVSMSKNNVA | EMETREE | QQYDRLPLS | 1.89 1.77 0.74 1.56 1.07 1.20 | 2 of 18 (2.55) |
| 24 | MFSQMTGLGMKAKNSVA | QASMRFD | QQYHRLPLI | 1.91 1.68 2.18 1.47 1.87 1.57 | 2 of 18 (2.48) |
| 25 | HIGLATMLQETVRNSVA | NNSTRED | QQYDRLPLS | ND 2.55 ND 2.82 ND 2.34 | 0 of 18 |
| 26 | HLSHMSGVESVKRNSVA | ENSTRAN | QQYDRLPLA | 2.17 2.00 1.86 1.95 1.52 1.63 | 1 of 18 (2.93) |
| 27 | QLSMITGHVSMIKNNVA | EMETREN | QQYDRLPLS | 1.08 1.07 1.37 1.66 1.01 1.37 | 0 of 18 |
| 28 | KLTMITGLEKVSKNNVA | EMETRVQ | QQYNRLPLA | -0.09 -0.35 -0.16 -0.12 -0.29 -0.22 | 0 of 18 |
| 29 | HVSMLTLQGMRHTNSVA | QMTTRVN | QQYDRLPLM | 1.56 2.33 3.67 ND 1.28 1.52 | 0 of 18 |
| 30 | MLSEVLHMLGVKKNSIA | DLVIRAN | QQYHRLPLM | ND ND ND ND ND ND | 0 of 18 |
| 31 | MISQLMNLGQFAINSVA | QATIRNS | QQYDRLPLS | ND 1.43 1.74 1.82 ND 2.01 | 2 of 18 (2.40) |
| 32 | MVNGIMDHLSKNTNNVA | ETTTRNS | QQYDRLPLA | 0.45 0.19 0.07 0.03 0.19 0.97 | 0 of 18 |
| 33 | KIGMTLNQLLHKKNNVA | DLVTREQ | QQYHRLPLS | 0.87 0.52 0.87 0.47 0.41 0.53 | 0 of 18 |
| 34 | MISQVLNTLTRTGNNVA | DLQERET | QQYFRLPLS | 1.11 0.48 0.82 1.00 1.62 1.14 | 0 of 18 |
| 35 | KLSMTAEMEIKNRNSVA | ELVTRMS | QQYNRLPLS | 1.56 0.67 1.34 1.79 0.98 0.92 | 0 of 18 |

A selection of 2 entries from above:

{"CDR-L1": "TISQLMNMGQFAINSVA", "CDR-L2": "QAEIRNA", "CDR-L3": "QQYDRLPLA", "log10 Kd, replicates": "1.37 1.52 0.94 1.09 1.59 1.50", "empty controls": "1 of 18 (2.96)"}
{"CDR-L1": "MISQLMNLGQFAINSVA", "CDR-L2": "QATIRNS", "CDR-L3": "QQYDRLPLS", "log10 Kd, replicates": "ND 1.43 1.74 1.82 ND 2.01", "empty controls": "2 of 18 (2.40)"}

Reference: Li et al. 2023, doi:10.1038/s41467-023-39022-2. File: FLAb, binding data.